Data on two compounds can be found in BindingDB's records for 36462442.

Chains of the proteins cited; added tags and fusions are not shown. Residues count along the entry.
UniProt P06276, 29-602 limits assumed: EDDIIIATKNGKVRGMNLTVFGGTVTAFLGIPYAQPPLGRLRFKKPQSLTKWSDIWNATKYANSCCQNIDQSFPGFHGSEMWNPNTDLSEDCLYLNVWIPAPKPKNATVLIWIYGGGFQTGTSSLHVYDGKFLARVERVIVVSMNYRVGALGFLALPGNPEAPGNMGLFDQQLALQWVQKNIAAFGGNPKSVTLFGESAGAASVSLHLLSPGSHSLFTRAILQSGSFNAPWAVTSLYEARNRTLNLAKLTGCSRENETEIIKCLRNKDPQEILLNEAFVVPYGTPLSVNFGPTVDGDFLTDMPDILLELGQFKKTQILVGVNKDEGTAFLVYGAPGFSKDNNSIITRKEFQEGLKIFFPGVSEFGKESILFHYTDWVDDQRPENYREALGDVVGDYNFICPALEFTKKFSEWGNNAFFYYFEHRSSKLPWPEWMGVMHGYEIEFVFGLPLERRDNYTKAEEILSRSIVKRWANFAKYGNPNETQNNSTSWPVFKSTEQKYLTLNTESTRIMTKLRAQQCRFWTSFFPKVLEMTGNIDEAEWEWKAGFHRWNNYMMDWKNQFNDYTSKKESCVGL

The target in this experiment is Cholinesterase (Homo sapiens, UniProt P06276). Briefly: Inhibition of human BChE using butyrylthiocholine as substrate preincubated for 5 mins followed by substrate addition and measured after 2 mins by Perkin elmer based spectrophotometer analysis.

As for `CC[N+](CC)(CCCCCn1c(=O)cc(C)n(CCCCn2c(C)cc(=O)n(C)c2=O)c1=O)Cc1ccccc1C(F)(F)F`, the IC50 is 200 µM.
`CC[N+](CC)(CCCCCn1c(=O)cc(C)n(CCCn2c(C)cc(=O)n(C)c2=O)c1=O)Cc1ccccc1C(F)(F)F` gave an IC50 of 440 µM.
